In patent US20020152038A1, “Selection method for aroma substances” (priority 2000, published 2002):

What was measured:
[1] = Headspace above the lemonade, SPME, relative partition parameters; assay type: physicochemical; conditions: headspace vs lemonade, 0.05% odorant mixture, 2 h at 35° C., SPME 15 min
[2] = Headspace above the milkshake, SPME-GC, relative partition parameters; assay type: physicochemical; conditions: headspace vs milkshake, 0.2% aroma mixture, 2 h at 35° C., SPME 15 min

Substance: Musk, xylene
- Activity (logarithmic partition parameter above lemonade) [1]: −2.789
- Activity (logarithmic partition parameter above a milkshake) [2]: −2.648

This is a selection: effects in other tests are not listed, and their absence says nothing.
